# Reference: PMC11541501, “Development of a Candidate ^11C‑Labeled Selective Phosphodiesterase 1 Radioligand for Positron Emission Tomography” (ACS Omega, 2024)
# The chains behind the UniProt entries cited, without tags or fusion partners.
# UniProt Q01064, whole entry: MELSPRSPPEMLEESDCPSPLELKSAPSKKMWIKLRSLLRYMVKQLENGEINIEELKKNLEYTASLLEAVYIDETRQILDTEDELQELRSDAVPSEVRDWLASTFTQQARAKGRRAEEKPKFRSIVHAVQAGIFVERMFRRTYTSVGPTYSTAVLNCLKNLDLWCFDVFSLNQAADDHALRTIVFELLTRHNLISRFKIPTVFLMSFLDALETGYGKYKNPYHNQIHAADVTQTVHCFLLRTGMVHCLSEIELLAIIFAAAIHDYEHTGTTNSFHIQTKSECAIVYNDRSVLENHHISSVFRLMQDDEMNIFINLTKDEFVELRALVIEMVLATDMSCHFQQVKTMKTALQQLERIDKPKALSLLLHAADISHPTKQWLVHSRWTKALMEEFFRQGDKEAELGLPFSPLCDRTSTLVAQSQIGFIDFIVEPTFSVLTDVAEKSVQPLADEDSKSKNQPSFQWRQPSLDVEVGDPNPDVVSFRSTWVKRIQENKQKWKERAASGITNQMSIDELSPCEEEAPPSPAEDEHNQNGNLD
# What was measured:
# PDE1B [1] = target: PDE1B (Homo sapiens, UniProt Q01064); experiment: PDE1B inhibition; format: biochemical; conditions: read-out: PDE1B IC50
# PDE1B [2] = experiment: In vitro autoradiography with [11C]PF-04822163 on rat brain sections, blocking; conditions: blocker 10 μM, [11C]PF-04822163 autoradiography
IC50 (PDE1B [1]) [nM],SMILES,decrease in radioactivity signal in PDE1B-rich regions (PDE1B [2])
458,COc1ccc2c([C@@H]3CCc4ccc(Cl)cc43)ncnc2c1OC,–
–,COc1ccc2c(N[C@@H](C)Cc3cc(C)[nH]n3)ncnc2c1OC,24–51%
